Our source for the Ki and EC50 values is US20230066286A1, “DEUTERATED TRYPTAMINE DERIVATIVES AND METHODS OF USE” (priority 2020, published 2023).

By UniProt entry, the sequences of proteins in these tests, tags left out.
UniProt P41595, whole entry: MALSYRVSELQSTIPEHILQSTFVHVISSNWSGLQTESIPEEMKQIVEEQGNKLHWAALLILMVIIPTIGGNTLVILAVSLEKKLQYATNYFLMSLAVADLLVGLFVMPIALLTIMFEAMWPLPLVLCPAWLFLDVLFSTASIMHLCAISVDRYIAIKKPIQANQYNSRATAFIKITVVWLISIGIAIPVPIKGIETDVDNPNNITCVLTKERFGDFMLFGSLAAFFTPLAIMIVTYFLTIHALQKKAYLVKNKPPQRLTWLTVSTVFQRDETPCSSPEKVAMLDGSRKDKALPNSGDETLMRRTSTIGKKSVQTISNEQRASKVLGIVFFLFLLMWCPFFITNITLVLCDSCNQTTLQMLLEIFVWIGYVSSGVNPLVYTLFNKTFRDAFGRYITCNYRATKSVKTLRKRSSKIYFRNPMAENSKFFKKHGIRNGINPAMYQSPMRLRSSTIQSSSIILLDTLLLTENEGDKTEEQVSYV

Each structure is given as a SMILES string. Where only a bound is given, the exact number is not on record here.

Assay [1] concerns the target T1, 5-HT2B (Homo sapiens, UniProt P41595).
T1 construct: expressed in transfected cells; host or cells: CHO-K1 or HEK293
The assay can be described thus: Receptor affinity assay, radioligand competition binding. How it is done: Receptor Affinity Assays: 5-HT1A, 5-HT2(A,B,C) receptor affinities were determined by radioligand competition binding. Membranes from CHO-K1 or HEK293 cells expressing serotonergic receptors were collected and incubated in assay buffer with Kd concentrations of radioligands and tests compounds that compete for receptor binding sites. After equilibration, the reaction was terminated by collecting ligand-receptor-membrane complexes (Microbeta, PerkinElmer), and radioactivity was measured by a scintillation counter (Microbeta2, PerkinElmer). Data were fit to non-linear curves, and Ki values were calculated per the Cheng-Prusoff equation.

Assay [2] concerns the target T1, 5-HT2B. As to the kind of experiment: Receptor function assay, Gq stimulation (IP1 production). It counts as cell-based. How it is done:
Receptor Function Assays: 5-HT1A receptor-mediated Gi stimulation (reduction in cyclic adenosine monophosphate (cAMP) levels) and 5-HT2(A,B,C) receptor-mediated Gq stimulation (phosphoinositide hydrolysis leading to the production of inositol phosphate 1 (IP1))-canonical signaling pathways—were measured as previously described (Canal et al., 2013), for example, with a homogeneous time-resolved fluorescence (HTRF) capable microplate reader (e.g., Mithras LB 940, Berthold) using commercially-available kits employing Fluorescence Resonance Energy Transfer (FRET) technology (e.g., LANCE Ultra cAMP TR-FRET (PerkinElmer) and IP-One HTRF (Cisbio) kits). Briefly, CHO-K1 or HEK293 cells expressing serotonergic receptors were incubated with test compounds in stimulation buffer. After equilibration, the reaction was terminated with the donor and acceptor fluorescent conjugates in lysis buffer, and FRET was measured. Data were fit to non-linear curves to calculate potencies (e.g., EC50) and efficacies (e.g., EMAX), relative to positive controls (e.g., serotonin).

By Ki is commonly meant the equilibrium dissociation constant of an inhibitor or competing ligand from its target. A higher Ki goes with weaker binding. Broadly, the EC50 is the concentration needed to bring the measured effect to its halfway point. Read a low EC50 as a more potent agent. In turn, `[2H]C([2H])(Cc1c[nH]c2cccc(O)c12)N(C)C` [PI-α,α-d2] showed a Ki on 5-HT2B [1] of 6 nM. The same compound yielded an EC50 on 5-HT2B [2] of over 20000 nM.
